## scFv variants of Ab-14 (light chain) against a SARS-CoV-2 spike peptide

Target: peptide PDVDLGDISGINAS, taken from heptad repeat 2 (HR2) of SARS-CoV-2 spike.

Ab-14 is the parent antibody, in scFv form: VH, then three GGGGS repeats, then VL. The heavy chain is unchanged in all variants.
VH: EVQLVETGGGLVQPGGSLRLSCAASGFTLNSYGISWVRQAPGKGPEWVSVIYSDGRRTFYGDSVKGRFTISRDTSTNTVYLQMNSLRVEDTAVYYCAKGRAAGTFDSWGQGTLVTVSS
VL: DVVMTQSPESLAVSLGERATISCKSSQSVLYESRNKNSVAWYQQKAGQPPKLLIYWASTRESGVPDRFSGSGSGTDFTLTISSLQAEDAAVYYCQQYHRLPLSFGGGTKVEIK

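The parent was found by panning a naive human phage display library on the peptide. Library AAYL50 holds single substitutions and randomly drawn double and triple substitutions in the CDRs. Affinity was read by AlphaSeq, a pooled yeast mating assay with surface-displayed partners. Binding brings cells together so that they mate, and sequencing counts the barcode pairs among the diploids. The ratio of observed to expected reads was calibrated, replicate by replicate, on BCL2-family standards whose Kd was known from biolayer interferometry. Mating was done three times.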

The parent's light chain CDRs are KSSQSVLYESRNKNSVA, WASTRES, QQYHRLPLS; each variant's own CDRs replace them letter for letter. Scale: log10 of Kd in nM, estimated from mating counts; low values are strong binders. Replicates are averaged; those with no signal do not enter the mean. "nd" marks a missing value. The strain was present, yet no cells mated with the target were sequenced in any replicate, which points to weak or no binding.

CDR-L1,CDR-L2,CDR-L3,mean log10 Kd (nM),replicates with signal
KSSQSVLSESRNKNSHA,QASTRES,QQYHRLPLS,2.36,3 of 3
KSSQSVLYESRNKNSVA,WMSTRVS,QQYHRLPES,1.72,3 of 3
KSSQSVLYESRNKNSVA,WASHTES,QQYGRLPLS,4.24,2 of 3
KSSQGVLYESRNKNSVA,YASTRES,QQYHLLPLS,1.22,3 of 3
KSSQSVLYESRNKNSVA,WASTRLS,GQYHRLPLS,1.21,3 of 3
KSSQSVLYEGRNKNSVA,WASTRES,QEYHRSPLS,4.13,1 of 3
KSSQSALCESRNKNSVA,WASTRES,QQYHRLPPS,nd,0 of 3
KSSPSVLYESRNKNSVA,WAATRES,QQYHRLPLS,nd,0 of 3
KSSTSVLYESRQKNSVA,WASTRES,QFYHRLPLS,2.40,3 of 3
KSSQSVLYESRNKNSVA,WMSNRES,QQYHRLPLS,3.20,3 of 3
KSKQSVLYESRNKCSVA,DASTRES,QQYHRLPLS,nd,0 of 3
KSSQSVLYESRNKNSVI,WASAREQ,QQYHRLPLS,4.12,1 of 3
KSTQEVLYERRNKNSVA,WASTRES,QQYHRLPLS,nd,0 of 3
KSSQSVLYESRNKNSVY,WASTRES,QQYHALPLH,nd,0 of 3
KSSQSVLYESRNKNSVA,WASTRES,QQAHRLRLS,0.82,3 of 3
KSSQQVLYESRNKNSVA,WASTRYS,QQYHRLPLE,1.20,3 of 3
KCSQSVLYESRNKNSVA,WASFRES,QQYHRRPLS,4.05,1 of 3
KSSQKVLYEVRNKNSVA,WASTRES,QVYHRLPLS,5.59,2 of 3
KSSQSVLYESRLDNSVR,WASTRES,QQYHRLPLS,nd,0 of 3
KSSQSVLYESRNKNSVA,WASGCES,QQYHRSPLS,nd,0 of 3
KSSQSVLYESRKKNSVA,WASTVRS,QQYHRLPLS,nd,0 of 3
KSSQSVLYRSRNKNSVA,WASTVES,QHYHRLPLS,3.29,1 of 3
KSSQSMLYESRNKNSVK,WASTNES,QQYHRLPLS,4.60,2 of 3
PSSQSVLYESQNKNSVA,WASKRES,QQYHRLPLS,4.45,1 of 3
KSSQSVLYESRNKQSVA,WASKRES,QQYMRLPLS,1.05,3 of 3
KSSQSVLYESRNKNAVA,WASTRES,QVYHRNPLS,4.39,1 of 3

Further variants, results first:

mean log10 Kd (nM),replicates with signal,CDR-L1,CDR-L2,CDR-L3
1.20,3 of 3,KSSQSRLYESRNKNSVA,WASTRET,QQYSRLPLS
4.19,1 of 3,KSSQSVLYESRNKNSVA,WASDRES,QPYHRLRLS
nd,0 of 3,KSSQSVLYESRNKNSVA,WASTREE,LQYQRLPLS
2.33,3 of 3,KSSQSVLYKSRNKNSVA,WASTRES,QCYHRLPLS
4.83,3 of 3,KSSQSVLYESRNKNSSD,WASTRES,QQYHHLPLS
1.30,3 of 3,KSSQSVRYESRNKNSVA,WASTRES,QQMHRLFLS
nd,0 of 3,KSSQSQLYESRNKNSVQ,WASTRES,QQYFRLPLS
2.16,3 of 3,KSQQSVLYESRNKNSVA,WASTRES,QQYHRLFLN
4.52,1 of 3,KSSVSVLYTSYNKNSVA,WASTRES,QQYHRLPLS
3.62,1 of 3,KSSQSMLYQSRNKNSVA,WASTRES,QQWHRLPLS
3.96,1 of 3,KSSQTVLYESRNKNSVA,WASTRES,QQYHRPPLE
1.97,3 of 3,KSSQSVLYYSVNKNSVA,WASTRES,QQYHRLGLS
2.48,1 of 3,KFSQSVLYESRNANSVA,WASTRES,QQMHRLPLS
-0.36,3 of 3,KLSQSVLYESREKNNVA,WASTRES,QQYHRLPLS
1.70,3 of 3,KSSQSVLTESRNKNSVA,WALTRES,QQYHRLVLS
nd,0 of 3,KSSQSVLYVSRNKTSVA,WASTWES,QQYHRLPLS
0.96,3 of 3,KSSQSVLYESPNKWSVA,WASYRES,QQYHRLPLS
3.50,3 of 3,KASYSVLYYSRNKNSVA,WASTRES,QQYHRLPLS
1.02,3 of 3,HSSQSVLYESMNKNSVA,WASTRES,QQYERLPLS
4.25,1 of 3,KSSQSVLSCSRNKNSVA,WASTRES,QQYHRLPLE
nd,0 of 3,KSSQSVWYESRNKNSVA,WASAREY,QQYHRLPLS
nd,0 of 3,KSAQSVLGESRNKNSVG,WASTRES,QQYHRLPLS
0.92,3 of 3,KSQQSVHYESRNKNSVA,WASTREN,QQYHRLPLS
1.17,3 of 3,KSSQRVLYESRNKNAVA,WASTRES,DQYHRLPLS
3.66,3 of 3,KSSQSVLYESRNMNSYA,WASRRES,QQYHRLPLS
4.75,1 of 3,KSSQSVLYESRNKFSVA,WASTRES,QQYHILPWS

The closing 4 entries, repeated:

| CDR-L1 | CDR-L2 | CDR-L3 | mean log10 Kd (nM) | replicates with signal |
|---|---|---|---|---|
| KSQQSVHYESRNKNSVA | WASTREN | QQYHRLPLS | 0.92 | 3 of 3 |
| KSSQRVLYESRNKNAVA | WASTRES | DQYHRLPLS | 1.17 | 3 of 3 |
| KSSQSVLYESRNMNSYA | WASRRES | QQYHRLPLS | 3.66 | 3 of 3 |
| KSSQSVLYESRNKFSVA | WASTRES | QQYHILPWS | 4.75 | 1 of 3 |

For reference, the parent read 0.65 as the reference entry and 1.68 as a member of this library. Empty control strains, which show no peptide, gave a signal in 18% of pairings with library AAYL50; the median was 4.19 and 95% of these signals were weaker than 2.99. No background was subtracted.

From the AlphaSeq antibody data of Engelhart et al. 2022 (doi:10.1038/s41597-022-01779-4), copy in the FLAb collection.